The values that follow come from patent publication US20200085828A1, “PHOSPHODIESTERASE INHIBITORS AND METHODS OF MICROBIAL TREATMENT” (Mavupharma, Inc., priority 2016, published 2020).

By UniProt entry, the sequences of proteins in these tests, tags left out.
UniProt P22413, whole entry: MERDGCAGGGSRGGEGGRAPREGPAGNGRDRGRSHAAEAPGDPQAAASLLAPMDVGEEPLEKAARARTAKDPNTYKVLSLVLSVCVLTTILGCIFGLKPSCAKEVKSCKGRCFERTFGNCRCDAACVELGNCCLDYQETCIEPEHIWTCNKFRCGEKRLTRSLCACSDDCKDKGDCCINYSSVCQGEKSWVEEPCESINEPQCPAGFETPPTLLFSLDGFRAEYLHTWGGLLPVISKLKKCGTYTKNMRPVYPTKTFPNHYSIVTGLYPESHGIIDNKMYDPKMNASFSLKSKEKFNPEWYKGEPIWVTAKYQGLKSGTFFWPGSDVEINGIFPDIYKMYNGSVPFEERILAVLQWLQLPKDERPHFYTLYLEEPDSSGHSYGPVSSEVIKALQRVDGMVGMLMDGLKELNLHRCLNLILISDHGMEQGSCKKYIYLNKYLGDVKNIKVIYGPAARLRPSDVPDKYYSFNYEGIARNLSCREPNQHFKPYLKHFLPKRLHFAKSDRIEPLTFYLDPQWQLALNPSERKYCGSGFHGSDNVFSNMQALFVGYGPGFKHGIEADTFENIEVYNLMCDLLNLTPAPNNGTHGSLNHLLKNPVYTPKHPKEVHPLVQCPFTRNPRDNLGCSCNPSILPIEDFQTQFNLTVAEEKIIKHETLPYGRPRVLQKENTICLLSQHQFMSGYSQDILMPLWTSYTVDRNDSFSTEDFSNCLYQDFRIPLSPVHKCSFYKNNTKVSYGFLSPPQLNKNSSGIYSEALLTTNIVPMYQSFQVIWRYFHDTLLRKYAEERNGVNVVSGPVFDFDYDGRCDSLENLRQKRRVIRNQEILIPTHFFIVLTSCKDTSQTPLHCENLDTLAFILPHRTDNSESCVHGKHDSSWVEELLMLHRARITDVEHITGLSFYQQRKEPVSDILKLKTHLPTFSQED

A word on the Ki: it is a measure of affinity in units of concentration, obtained from inhibition or displacement.

Assay [1] addresses T1, human recombinant ENPP1 (Homo sapiens, UniProt P22413). Put plainly: ENPP1 inhibition with 2′,3′-cGAMP substrate (AMP-Glo assay). It is filed as biochemical. To be noted: read-out: ENPP1 inhibition Ki (nM) cGAMP Substrate; 20 μM 2′3′cGAMP; Ki from IC50 by Cheng-Prusoff, Km 15 μM.
Assay [2] has as its target T1, human recombinant ENPP1. Put plainly: ENPP1 inhibition with AMP-pNP (ATP analog) substrate, absorbance at 405 nm. To be noted: read-out: ENPP1 inhibition Ki (nM) AMP-pNP Substrate; 300 μM AMP-pNP; Ki from IC50 by Cheng-Prusoff, Km 151 μM. It is filed as biochemical.

Take `COc1cc2ncnc(-c3ccc(CNS(N)(=O)=O)cc3)c2cc1OC`: the results for the inhibition constant Ki on human recombinant ENPP1 [1] and at human recombinant ENPP1 [2] were 2.9 nM and 140 nM, respectively.
In the case of `COc1cc2ncnc(N3CCN(C(=O)CNS(N)(=O)=O)CC3)c2cc1OC`, the Ki on human recombinant ENPP1 [1] is 7.3 nM; at human recombinant ENPP1 [2] it was 418 nM.
For `COc1cc2ncnc(N3CCC(CNS(N)(=O)=O)CC3)c2cc1OC` the same measures were 2.4 nM and 208 nM.
For the compound `COc1cc2nc(N)nc(N3CCC(CCNS(N)(=O)=O)CC3)c2cc1OC`, the Ki on human recombinant ENPP1 [1] worked out at 6.2 nM; on human recombinant ENPP1 [2], 296 nM.
As for `CNc1nc(N2CCC(CCNS(N)(=O)=O)CC2)c2cc(OC)c(OC)cc2n1`, the Ki on human recombinant ENPP1 [1] is 77.5 nM; at human recombinant ENPP1 [2] it was above 3000 nM.
Regarding `COc1cc2ncnc(NCc3ccc(NS(N)(=O)=O)cc3)c2cc1OC`, the Ki on human recombinant ENPP1 [1] was 9.1 nM; on human recombinant ENPP1 [2], 316 nM.
